{"source": "patent US4699914A", "about": "“Imidazole group containing 2(1H)-pyridones and method for treating heart insufficiencies in humans” (A. Nattermann & Cie GmbH, priority 1984, dated 1987)", "tested_on": "human platelets", "assay": "Inhibition of the collagen-induced platelets aggregation in vitro (method of Born)", "type": "cell-based", "settings": "Platelet, read-out: IC50 (concentration which causes an aggregation inhibition of 50%)", "method": "The inhibition of the collagen-induced platelets aggregation in vitro was carried out by using the method of Born (Nature, 194, 927-929 (1962)) in using a platelet rich human plasma with the substances of the present invention 3,6-dimethyl-5-[-5-(1-imidazolyl)-2-thienyl]-2(1H)-pyridone-hydrochloride=C, 3,6-dimethyl-5-[4-(1-imidazolyl)phenyl]-2(1H)-pyridone-hydrochloride=D, 5-[4-(1-imidazolyl)-2-thienyl]-6-methyl-2(1H)-pyridone-hydrochloride=E in comparison with the reference substance acetylsalicyclic acid=F.", "data": [{"smiles": "CC(=O)Oc1ccccc1C(=O)O", "note": "[F]", "values": [{"measurement": "IC50", "value": 90, "unit": "µM"}]}]}
